# Source: patent publication US20260382688A1, “IMPLANTATION FACILITATOR, AND SCREENING SYSTEM THEREFOR” (published 2026)
# Columns and labels:
# integrin = assay: AlphaScreen measurement of ability to form integrin activation complexes; conditions: 8 μM, FIG. 8
# Excerpt: The activity of peptides was detected by measuring their ability to form integrin activation complexes using AlphaScreen.
# [1] = system: embryo and uterine organoid; assay: Implantation-like reaction in the in vitro implantation system (fusion of embryo with uterine organoid); conditions: control group 5/22; system without stromal cells 1/22; chi-square test and residual analysis
# Excerpt: Uteri were collected from euthanized C56BL/6 or Rosa26^mCherry/mCherry mice, incised to expose the epithelium, and fragmented in this state. They were then subjected to an enzymatic treatment with Dispase, after which epithelial cells were collected. The epithelial cells were suspended in Matrigel and cultured in Advanced DMEM/F12 medium (WNT medium) supplemented with WNT3A, R-spondin 1, Noggin, EGF, and Hepes pH 7.4 to produce uterine organoids (Turco, 2017, Nature Cell Biology). Uterine tissues from which the epithelial cells had been removed were subjected to an enzymatic treatment with collagenase, after which stromal cells were collected. […] The uterine organoids and stromal cells derived from the C56BL/6 mice were fluorescently labeled with Cell Explorer™ Live Cell Tracking Kit Green Fluorescence (AAT Bioquest) immediately before performing an artificial implantation experiment.
# B6D2F1 female mice were administered CARD HyperOva (Kyudo Co., Ltd.), and further administered human chorionic gonadotropin (ASKA Pharmaceutical Co., Ltd.) 48 hours later. […] The embryos were cultured in KSOM medium (ARK Resource Co., Ltd.) for 3 days to allow them to develop into blastocysts, which were fluorescently labeled with Cell Explorer™ Live Cell Tracking Kit Red Fluorescence (AAT Bioquest) immediately before performing an artificial implantation experiment. […]
# [2] = system: maternal bodies (female mice); assay: Blood tests of maternal bodies after intraperitoneal administration (liver and kidney indicators); conditions: i.p., 8 μM with respect to total body weight, in corn oil
# Description: An excess amount of Iznm-2 was administered intraperitoneally to female mice to examine the side effects of the peptide medicament. In Example 8, 8 μM Iznm-2 was administered together with 5 μl or less of the embryos to the uterus of each mouse. In the present experiment, Iznm-2 was administered in such a manner that the concentration thereof would be 8 μM with respect to the total weight of each mouse. Iznm-2 was dissolved in corn oil. As a control, corn oil without the peptide medicament was administered. Blood samples were collected 24 hours after the administration, and blood components serving as indicators of the condition of the liver and kidney were analyzed.
# [3] = system: embryos (mouse blastocysts); assay: Attachment of embryos (mouse blastocysts) to glass surface; conditions: control 0/13; p<0.01, chi-square test
# Description: (§1) B6D2F1 female mice were administered CARD HyperOva (Kyudo Co., Ltd.), and further administered human chorionic gonadotropin (ASKA Pharmaceutical Co., Ltd.) 48 hours later. Thereafter, they were mated with B6D2F1 male mice. The day after next, the female mice were euthanized, and two-cell stage embryos were collected from their oviducts. The embryos were cultured in KSOM medium (ARK Resource Co., Ltd.) for 3 days to allow them to develop into blastocysts, which were fluorescently labeled with Cell Explorer™ Live Cell Tracking Kit Red Fluorescence (AAT Bioquest) immediately before performing an artificial implantation experiment. […]
# (§2) In order to examine whether the peptide medicament Iznm-2 actually causes integrin activation in embryos, blastocysts from which the zona pellucida had been removed were added to glass-bottom dishes (Matsunami) and cultured in implantation medium for 3 days. […] As a result, cells more strongly fluorescently stained as compared to cells in the control group (FIGS. 8A and 8C) were detected in the experimental group (FIGS. 8B and 8D).
# The rate of attachment was 0/13 in the control group and 13/14 in the Iznm-2-added group, and a significant difference was detected between the two groups (p<0.01, chi-square test, FIG. 10C).
# transferred embryos = assay: Embryo transfer with implantation window shift: implantation and development at E15.5; conditions: 8 μM at embryo transfer
# Description: In order to examine the effect of the peptide medicament on embryo transfer, the following experiment was performed. ICR male mice at 8 weeks of age were vasectomized. ICR female mice in proestrus were mated with the vasectomized male mice, and the female mice having developed a copulation plug on the following day were used as pseudopregnant female mice. Two days after confirming the presence of the copulation plug, B6D2F1 mouse embryos that had developed into blastocysts were transferred to the female mice. The blastocysts were added to KSOM medium with 8 μM Iznm-2 or without 8 μM Iznm-2 (control) immediately before the transfer, and the embryos were transferred together with the medium. The amount of the medium injected into the uterus at the time of transfer was 5 μl or less. The blastocysts at 4.5 days post-coitum were transferred to the pseudopregnant mice at 2.5 days post-coitum. With such a difference in the number of days post-coitum, an embryo transfer experiment was performed before the uterus was fully prepared for implantation, thereby reproducing a mismatch between the timing at which the endometrium is ready to accept a fertilized egg and the timing when the fertilized egg reaches the endometrium (the so-called “implantation window shift”), which is one of the causes of infertility (FIG. 12). The embryo transfer was performed in the following manner. The pseudopregnant female mice were anesthetized, and the skin on one side in the dorsum and the abdominal wall of each mouse were incised to expose the uterus to the outside of the body. The uterus was pierced through with a 26-G needle, and the embryos were injected into the thus-formed hole together with the medium using a glass tube. After the transfer, the uterus was returned to the body, and the incision was sutured. The transferred embryos were allowed to develop in the recipient mice until E15.5. Thereafter, the surrogate mice were euthanized, and the embryos were removed from the bodies and the implantation rate and their development were examined (FIGS. 13A and 13B).
# embryos = assay: Effect on embryo development after transfer to pseudopregnant mice (to E14); conditions: 32 μM Iznm-2 in KSOM medium at transfer
# Description: In order to examine the effect of the peptide medicament on embryo development, the following experiment was performed. ICR male mice at 8 weeks of age were vasectomized. ICR female mice in proestrus were mated with the vasectomized male mice, and the female mice having developed a copulation plug on the following day were used as pseudopregnant female mice. Two days after confirming the presence of the copulation plug, B6D2F1 mouse embryos that had developed into blastocysts were transferred to the female mice. The blastocysts were added to KSOM medium supplemented with 32 μM Iznm-2 immediately before the transfer, and the embryos were transferred together with the medium. The amount of the medium injected into the uterus at the time of transfer was 5 μl or less. The embryo transfer was performed in the following manner. The pseudopregnant female mice were anesthetized, and the skin on one side in the dorsum and the abdominal wall of each mouse were incised to expose the uterus to the outside of the body. The uterus was pierced through with a 26-G needle, and the embryos were injected into the thus-formed hole together with the medium using a glass tube. After the transfer, the uterus was returned to the body, and the incision was sutured. The transferred embryos were allowed to develop in the recipient mice until E14. […]
# activated integrin β1 = assay: Activated integrin β1 immunofluorescence staining in embryos (blastocysts); conditions: blastocysts without zona pellucida, implantation medium, 3 days; antibody MAB2259Z
# Description: as §1, with “experiment. For artificial insemination, Rosa26^H2B-EGFP/H2B-EGFP male mice at 8 weeks of age or older were euthanized, and sperm was collected from their cauda epididymides and cryopreserved using CARD FERTIUP Mouse Sperm Cryopreservation Solution (Kyudo Co., Ltd.).” for “experiment.”
# as §2
structure (smiles),measurement,setting,value
CCCCCCCCCCCCCC(=O)N[C@@H](CCCCN)C(=O)N[C@@H](Cc1ccccc1)C(=O)N[C@@H](CCC(=O)O)C(=O)N[C@@H](CCC(=O)O)C(=O)N[C@@H](CCC(=O)O)C(=O)N[C@@H](CCCNC(=N)N)C(=O)N[C@@H](CCSC)C(=O)N[C@@H](CCCNC(=N)N)C(=O)N[C@@H](CS)C(=O)N[C@@H](CCCCN)C(=O)N[C@@H](Cc1c[nH]c2ccccc12)C(=O)N[C@@H](CCSC)C(=O)N[C@H](C(=O)O)[C@@H](C)O,integrin activation effect,integrin,approximately 5 fold
same,implantation-like reaction rate (number of embryos),[1],6/14
CCCCCCCCCCCCCC(=O)N[C@@H](CCCCN)C(=O)N[C@@H](Cc1ccccc1)C(=O)N[C@@H](CCC(=O)O)C(=O)N[C@@H](CCC(=O)O)C(=O)N[C@@H](CCC(=O)O)C(=O)N[C@@H](CCCNC(=N)N)C(=O)N[C@@H](CO)C(=O)N[C@@H](CCCNC(=N)N)C(=O)N[C@@H](CS)C(=O)N[C@@H](CCCCN)C(=O)N[C@@H](Cc1c[nH]c2ccccc12)C(=O)N[C@@H](CCSC)C(=O)N[C@H](C(=O)O)[C@@H](C)O,Liver I-BIL,"[2]; 24 hours, corn oil control 0",0.02 mg/dL
same,Liver D-BIL,"[2]; 24 hours, corn oil control 0.02",0.02 mg/dL
same,Liver T-BIL,"[2]; 24 hours, corn oil control 0.08",0.08 mg/dL
same,Kidney CRE,"[2]; 24 hours, corn oil control 0.115",0.12 mg/dL
same,Liver A/G,"[2]; 24 hours, corn oil control 2.05",1.85
same,Liver γ-GT,"[2]; 24 hours, corn oil control 3",3 IU/L
same,Liver ALB,"[2]; 24 hours, corn oil control 3.25",3.3 g/dL
same,Liver & Kidney LAP,"[2]; 24 hours, corn oil control 24",26 IU/L
same,Liver ChE,"[2]; 24 hours, corn oil control 29.5",32.5 IU/L
same,Liver ALT,"[2]; 24 hours, corn oil control 45",38 IU/L
same,Liver ALP,"[2]; 24 hours, corn oil control 419.5",463 IU/L
same,Liver & Kidney TP,"[2]; blood 24 hours after administration, corn oil control 4.85",5.1 g/dL
same,rate of attachment of embryos to glass surface,[3],13/14
same,fraction of implanted embryos that developed,"transferred embryos; FIGS. 13C and 13D, the rest did not develop at all",about half of the implanted embryos developed
same,implanted embryos developed normally,transferred embryos; out of 22 implanted (41 transferred),12 embryos
same,transferred embryos successfully implanted,"transferred embryos; out of 41 transferred embryos, 4.5 dpc blastocysts into 2.5 dpc pseudopregnant mice, control: none of 24",22 embryos
same,effect on embryo development,embryos,does not greatly affect embryo development
same,embryo development after transfer,embryos; embryos removed at E14,developed normally
same,"integrin activation (Active-Integrin β1) in embryos, fluorescent staining versus control group",activated integrin β1,cells more strongly fluorescently stained as compared to cells in the control group
same,integrin activation effect,integrin,approximately 14 fold
same,implantation-like reaction rate (number of embryos),[1],12/19
